The results in this text go back to patent publication US20230192683A1, “FUSED RING COMPOUNDS, PREPARATION METHOD THEREFOR, PHARMACEUTICAL COMPOSITIONS AND USE THEREOF” (priority 2020, published 2023).

Sequences of proteins named here, by UniProt entry; tags and fusion partners are left off. A change or cut given only in a name is not applied to a line headed by its entry.
UniProt P31391: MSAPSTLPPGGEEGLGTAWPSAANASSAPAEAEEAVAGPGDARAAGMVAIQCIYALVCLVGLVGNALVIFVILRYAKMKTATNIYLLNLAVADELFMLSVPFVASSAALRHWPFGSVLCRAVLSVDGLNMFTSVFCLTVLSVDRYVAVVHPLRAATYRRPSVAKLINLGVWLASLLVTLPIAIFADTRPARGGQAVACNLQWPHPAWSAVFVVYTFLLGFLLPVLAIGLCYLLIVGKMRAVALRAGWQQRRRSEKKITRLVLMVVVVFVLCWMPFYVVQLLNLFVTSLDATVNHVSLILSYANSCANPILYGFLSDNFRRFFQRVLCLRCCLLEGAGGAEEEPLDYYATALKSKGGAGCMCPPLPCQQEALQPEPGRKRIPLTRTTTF

The Ki is the dissociation constant of the complex between target and ligand, obtained from inhibition or displacement. Low readings indicate a stronger hold on the target, high ones a looser hold on the target.

In the test the target is T1, human SSTR4 (Homo sapiens, UniProt P31391).
T1 construct: expressed in transfected cells
Kind of test: radioligand binding assay, [125I]Somatostatin-14, CHO-K1 membranes. The method, then: Cell membranes were then filtered and washed, and protein-bound radioactivity was measured with a suitable instrument. The Ki values of corresponding targets were calculated using a Cheng-Prusoff formula.

Take `Cc1cccc2c(C(C)(C)NC(=O)[C@H]3[C@@H]4CNC[C@@H]43)nn(C)c12` [Control Compound A, reference compound]: the Ki came out at 1.41 nM.
